The record followed here is US9714212B2, “Chemical compounds derived from normemantine and use of same in the medical field” (M2I DEVELOPMENT, priority 2013, dated 2017).

Molecules are shown by their SMILES.

A short description of the data set: Toxicity after a single intravenous administration in mice. It is filed as in vivo, mice C57/Black 6J. To be noted: male mice, single 0.125 μg/kg intravenously. As to the method: The objective of this test is to assess, qualitatively and quantitatively, possible toxic phenomena and the delay before onset thereof after a single administration of a predetermined dose of 0.125 μg/kg of body weight (which would correspond to more than 10^4 times the dose administered to humans). The tests were carried out on 5 male mice and the results were compared with those of 3 control mice receiving only 0.2 ml of 0.9% NaCl solution. All the mice are the species C57/Black 6J provided by Charles River Laboratories (France) and about 8 weeks old. The average weight of the mice at the beginning of the tests is about 32 g after an acclimation period of 2 weeks. The animals are housed three per cage (31 cm×46 cm×19 cm) at a temperature of 25° C.±2° C.
The volume administered to each mouse is defined as […] and is administered once intravenously by means of a suitable syringe and needle.
The animals are observed regularly the day of administration (after 30 minutes, 1 hour, 2 hours, 3 hours and 4 hours), and then once each day for at least 14 days. All the observations were unremarkable.
As these doses are much higher than those envisaged for labeling NMDA receptors, this product will be well tolerated for this application.

As for `NC12CC3CC(C1)CC(CCF)(C3)C2` [^18F-fluoroethyl normemantine], the “autopsy findings after 14 days” value is given as “no pathological change”. For the same compound, the observations after administration entry (observed 30 minutes to 4 hours and daily for at least 14 days) is on record as “unremarkable”.
